This data set can be described thus: Ocular delivery of dexamethasone after periocular injection. Particulars: single 5 mg peribulbar injection; assuming a vitreous volume of 4-5 ml.

Experimental findings from patent US8614235B2, “CAI-based systems and methods for the localized treatment of ocular and other diseases” (RFE Pharma LLC, priority 2004, dated 2013) are described below.

`C[C@@H]1C[C@H]2[C@@H]3CCC4=CC(=O)C=C[C@]4(C)[C@@]3(F)[C@@H](O)C[C@]2(C)[C@@]1(O)C(=O)CO` [Dexamethasone] displayed a vitreous concentration of 0.10 to 0.13 µM.
